Screening data: PubChem BioAssay, ICCB-Longwood Screening Facility, Harvard Medical School
GIV-Gai inh: inhibitors of GIV GBA-motif binding to rat Galpha-i3; percent of control (FP), % (concentration not given with the values); AID 1224905; Galpha-i3/FITC-GIV peptide fluorescence polarization, 90 min; stronger effect = lower value; scaled: aluminum fluoride 0%, vehicle 100%; 210,000 compounds, 0.42% hits; P08753;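 active means replicate mean at 85% of control or lower, very high polarization wells dropped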;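 further: wells of about 15 µL received 100 nL stock; the first replicate is given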
HCMV NEC inh: cytomegalovirus nuclear egress complex inhibition | HTRF UL50-UL53 interaction, normalized percent inhibition | inhibition, % (test concentration not listed) | hit rate 0.15% among 190,000 | AID 1918969; in the data active = inhibition above about 27%, passing the limit was not always enough
Active calls of the source: *; nt = not tested or not shown. The list is not random: actives were taken first. Their share in the collection is about 0.43%.

O=C(Nc1ccc(Cl)cc1C(F)(F)F)c1cc(S(=O)(=O)NCc2ccc3c(c2)OCO3)ccc1F
  GIV-Gai inh: 98.8 | HCMV NEC inh: nt

COc1cc(/C=C2\Cc3ccccc3C2=O)ccc1O
  GIV-Gai inh: 139.7 | HCMV NEC inh: -97.4

CN1CCCc2cc(/C=C3\Cc4ccccc4C3=O)ccc21
  GIV-Gai inh: -74.8* | HCMV NEC inh: nt

CCN(CC)c1ccc(/C=N/NC=O)c(O)c1
  GIV-Gai inh: nt | HCMV NEC inh: -34.6

CCN(CC)c1ccc(C=C2C(=O)c3ccccc3C2=O)c(O)c1
  GIV-Gai inh: -64.4* | HCMV NEC inh: -57.5

Cc1cc(CN(C)C(=O)c2cc(-c3cnn(C(C)C)c3)nc3cc(F)ccc23)on1
  GIV-Gai inh: nt | HCMV NEC inh: 36.4

CC(=Nc1cccc(O)c1)c1sc2ccccc2c1O
  GIV-Gai inh: 174.8 | HCMV NEC inh: -65.5

CC(=Nc1cccc(Br)c1)c1sc2ccccc2c1O
  GIV-Gai inh: 56.4* | HCMV NEC inh: -31.9

CCOc1ccccc1NC(=O)N1CCN(S(=O)(=O)c2ccc3c(c2)NC(=O)CO3)CC1
  GIV-Gai inh: 105.9 | HCMV NEC inh: -20.2

Cc1ccc(-n2[nH]c(=O)c(N=O)c2O)cc1C
  GIV-Gai inh: 85.1* | HCMV NEC inh: nt

CC(=O)Nc1ccc(N=Cc2c(C)[nH]n(-c3ccc(C)c(C)c3)c2=O)cc1
  GIV-Gai inh: 117.4 | HCMV NEC inh: nt

COC(=O)c1ccc(NC(=O)COC(=O)C2CCN(S(=O)(=O)c3cccs3)CC2)cc1
  GIV-Gai inh: nt | HCMV NEC inh: -18.0

O=C(Cc1cc(=O)[nH]c(=O)[nH]1)NC1CCCC1
  GIV-Gai inh: 101.5 | HCMV NEC inh: -23.1

CCOC(=O)COc1ccc(C#N)cc1
  GIV-Gai inh: 108.3 | HCMV NEC inh: -16.2

O=C(c1ccc2nc(/C=C(\O)c3ccc(Cl)cc3)c(=O)[nH]c2c1)N1CCOCC1
  GIV-Gai inh: 67.9* | HCMV NEC inh: -95.0

O=C(c1ccc2nc(/C=C(\O)c3ccc(Cl)cc3)c(=O)[nH]c2c1)N1CCN(c2ccco2)CC1
  GIV-Gai inh: 329.6 | HCMV NEC inh: -81.1

Cc1nc(-c2cc(NC(=O)Cc3ccccc3Br)c(C)s2)no1
  GIV-Gai inh: 108.7 | HCMV NEC inh: -8.4

Cc1ccc(-c2nnsc2-c2nc3ccccc3[nH]2)cc1
  GIV-Gai inh: nt | HCMV NEC inh: -29.0

CCN(C(=O)CSc1ccc(NC(C)=O)cc1)C1CCS(=O)(=O)C1 (stereo not drawn)
  GIV-Gai inh: nt | HCMV NEC inh: -5.2

Cc1cc(C(=O)OCC#N)c2ccccc2n1
  GIV-Gai inh: nt | HCMV NEC inh: -32.4

CN1c2cc(Cl)ccc2-c2nc(SCC(=O)NC3CCCC3)ncc2S1(=O)=O
  GIV-Gai inh: 103.4 | HCMV NEC inh: 75.1*

CN1c2cc(Cl)ccc2-c2nc(SCC(N)=O)ncc2S1(=O)=O
  GIV-Gai inh: 105.3 | HCMV NEC inh: 1.9

CCN1C(=O)/C(=C\c2ccc(-c3ccc(Cl)c(C(=O)O)c3)o2)SC1=S
  GIV-Gai inh: -14.8* | HCMV NEC inh: -390.6

O=C(O)CN1C(=O)/C(=C\c2ccc(-c3ccc(Cl)c([N+](=O)[O-])c3)o2)SC1=S
  GIV-Gai inh: 110.8 | HCMV NEC inh: -44.3

C[C@H](NS(=O)(=O)/C=C/c1ccccc1)C(=O)OC1CCOC1=O (stereo partly drawn)
  GIV-Gai inh: nt | HCMV NEC inh: -1.0

Single records (already shown). Order of values: GIV-Gai inh, HCMV NEC inh
CN1CCCc2cc(/C=C3\Cc4ccccc4C3=O)ccc21 reads -74.8*, nt
CCN(CC)c1ccc(C=C2C(=O)c3ccccc3C2=O)c(O)c1 reads -64.4*, -57.5

Later entries.
CS(=O)(=O)c1ccc(Cl)c(C(=O)OCc2nc3ccccc3s2)c1
  GIV-Gai inh: nt | HCMV NEC inh: -13.6

COc1cccc(NC(=O)CSc2nc3c(sc4ncccc43)c(=O)n2Cc2ccc(C)cc2)c1
  GIV-Gai inh: 100.5 | HCMV NEC inh: 78.8*

COc1ccc(C)cc1NC(=O)CSc1nc2c(sc3ncccc32)c(=O)n1Cc1ccc(F)cc1
  GIV-Gai inh: 101.8 | HCMV NEC inh: 54.6*

Cc1ccc(NC(=O)CSc2nc3c(oc4ccccc43)c(=O)n2Cc2ccc(F)cc2)c(C)c1
  GIV-Gai inh: 108.8 | HCMV NEC inh: nt

CCN(CC)CCn1c(SCC(=O)Nc2cccc(OC)c2)nc2c(sc3ccccc32)c1=O
  GIV-Gai inh: 103.3 | HCMV NEC inh: nt

Cn1c(=O)c(C#N)cc2c(=O)n3ccccc3nc21
  GIV-Gai inh: 107.5 | HCMV NEC inh: -48.7

Cc1ccc2oc(=O)c3cc(C(=O)Nc4nc(C)cs4)sc3c2c1
  GIV-Gai inh: 103.3 | HCMV NEC inh: -24.2

CC(C)C(=O)Nc1ccc(N(C)C)cc1C(=O)O
  GIV-Gai inh: 98.6 | HCMV NEC inh: 51.4*

CC(C)C(=O)Nc1ccc(Cl)cc1C(=O)O
  GIV-Gai inh: 99.5 | HCMV NEC inh: -14.0

Cc1ccc(Nc2nn(CN3CCOCC3)c(=S)s2)cc1
  GIV-Gai inh: nt | HCMV NEC inh: -34.9

C=CCNC(=O)Nc1c[nH]c2ccc(F)cc2c1=O
  GIV-Gai inh: 95.9 | HCMV NEC inh: -16.2

CC1CCN(C(=O)c2ccc3ccnc(N4CCN(c5ccc(Cl)cc5)CC4)c3c2)CC1
  GIV-Gai inh: 104.6 | HCMV NEC inh: nt

Cc1ccccc1NC(=O)C(C)Sc1nc2ccccc2c(=O)n1C (stereo not drawn)
  GIV-Gai inh: 100.5 | HCMV NEC inh: -17.1

CC(Sc1nc2ccccc2c(=O)n1C)C(=O)Nc1ccc2c(c1)OCCO2 (stereo not drawn)
  GIV-Gai inh: nt | HCMV NEC inh: 34.1*

N#Cc1c(N)nc(SCC(=O)Nc2ccccc2)c(C#N)c1-c1ccccc1
  GIV-Gai inh: 98.1 | HCMV NEC inh: 24.1*

N#Cc1c(N)nc(SCC(=O)c2ccc(Br)cc2)c(C#N)c1-c1cccs1
  GIV-Gai inh: 100.5 | HCMV NEC inh: 40.3*

COc1ccc(-c2c(C#N)c(N)nc(SCC(=O)OCc3ccccc3)c2C#N)cc1
  GIV-Gai inh: 104.1 | HCMV NEC inh: 4.4

N#Cc1c(N)nc(SCC(=O)c2ccc(Br)cc2)c(C#N)c1-c1ccccc1
  GIV-Gai inh: 100.7 | HCMV NEC inh: 7.0

CCOc1ccc(-c2c(C#N)c(N)nc(SCC(=O)OC)c2C#N)cc1
  GIV-Gai inh: 105.0 | HCMV NEC inh: 73.1*

N#Cc1c(N)nc(SCC(=O)Nc2ccc([N+](=O)[O-])cc2)c(C#N)c1-c1ccco1
  GIV-Gai inh: 96.7 | HCMV NEC inh: -27.2

CCOC(=O)c1ccc(N2C(=O)Cn3cccc3C2C(=O)NC2CCC(C)CC2)cc1 (stereo not drawn)
  GIV-Gai inh: 107.0 | HCMV NEC inh: -3.6

Cc1cccc(NC(=O)CC23CC4CC(CC(C4)C2)C3)n1
  GIV-Gai inh: 96.6 | HCMV NEC inh: -1.8

CCOc1ccc(NC(=O)c2cc(-c3ccc(C)s3)nc3ccccc23)c([N+](=O)[O-])c1
  GIV-Gai inh: 100.2 | HCMV NEC inh: -29.4
